Screens as filed in PubChem.
UUG fidelity: alters start codon recognition fidelity in yeast. S. cerevisiae UUG-firefly luciferase reporter, luminescence/redox ratio. AID 602363. activity score, % at 18.7 µM. hit rate 0.13% among 350,000;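 active = replicate mean at a twofold rise or more, about +100% in these data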;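 note: firefly luciferase made from a UUG start codon reports start codon fidelity; reporter light over untreated wells divided by growth signal over untreated wells; some hits fall short of that in this replicate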
PGC1a acetyl inh: PGC1a acetylation modulation, inhibitor mode. hit rate 0.17% among 350,000. inhibition, % at 15.6 µM. U2OS PGC1a acetylation, AlphaScreen anti-acetyl-lysine; with virally co-expressed GCN5 acetyltransferase;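 active means every replicate shows inhibition of at least 40%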
PglD DTNB: inhibitors of Campylobacter jejuni PglD acetyltransferase. purified PglD enzyme, DTNB colorimetric CoA detection. hit rate 0.098% among 360,000. inhibition, % at 12.5 µM; in the data active means inhibition above about 16%, passing the limit was not always enough
esBAF inh: SWI/SNF esBAF complex inhibition. mouse ES cells, Bmi1-luciferase knock-in reporter, 24 h; 100% = twice the neutral-well signal. reporter increase, % at 12.5 µM. hit rate 2% among 350,000. AID 602393; in the data active means activation above about 40%;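 further: a rise in the Bmi1 reporter signal indicates esBAF inhibition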
Statin myotox sup: suppressors of simvastatin-induced myotoxicity in C2C12 myotubes | hit rate 0.78% among 330,000 | ATP luminescence, 48 h; scaled: DMSO 0, geranylgeraniol control 100 | AID 602340 | rescue of ATP level, % at 7.49 µM;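 active means mean ATP rescue above about 67%, or every replicate alone reaching that limit, limit read from the data, passing the limit was not always enough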;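 further: myotubes were challenged with 10 µM simvastatin during compound exposure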
E-sel inducer: E-selectin induction on HUVECs. HUVEC E-selectin immunofluorescence imaging; normalized: neutral wells 0, TNF-alpha wells 100. activation, % at 7.58 µM. AID 686992. P16581. hit rate 0.37% among 260,000;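 active means mean E-selectin-positive cell signal at least 10% of the positive control, reached in at least 60% of replicates, without over 20% cell loss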
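System: HUVEC, human umbilical vein endothelial cells; quantity: 3,000 cells/well; buffer or medium: EGM-2 medium, gelatin-coated wells; dosing: single-point compound dose; detection: immunofluorescence imaging; evaluation: % PE-positive cells; benchmarks: TNF-alpha, DMSO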
Large screens that a line does not name were inactive. Shown are actives, neighbours in structure and some others; about 2.8% of the full set was active somewhere.

Cc1ccc(-c2nnc3n2CCCCC3)cc1	none (no result: E-sel inducer)
COc1ccc(-c2nnc3n2CCCCC3)cc1OC	E-sel inducer 35
COc1cccc(-c2ccc(CC[C@H]3O[C@H]4CC[C@H](CO)O[C@H]4C[C@@H]3NC(=O)CN(C)C)cc2)c1	none (no result: UUG fidelity, PglD DTNB, esBAF inh, Statin myotox sup, E-sel inducer)
C#Cc1ccc([C@@H]2C=C(C(=O)Nc3ccccc3)O[C@H](OCc3ccc(CO)cc3)C2)cc1	none (no result: esBAF inh, Statin myotox sup, E-sel inducer)
C/C(N)=C(/C#N)C(=O)COC(=O)c1cc(C)n(-c2ccc(F)cc2)c1C	esBAF inh 67
Cc1cc(C(=O)OCC(N)=O)c(C)n1-c1ccccc1	none (no result: esBAF inh, Statin myotox sup, E-sel inducer)
CC1=CC(C)(C)N=C(Nc2nc(C)c3cc(C)cc(C)c3n2)N1	none (no result: E-sel inducer)
CC1=CC(C)(C)N=C(NC#N)N1	Statin myotox sup 104 (no result: E-sel inducer)
Cc1ccc(C2OC(=O)c3ccccc32)cc1 (stereo not drawn)	Statin myotox sup 133 (no result: E-sel inducer)
Cc1ccc(C2OC(=O)C=C2c2ccccc2)cc1 (stereo not drawn)	none (no result: E-sel inducer)
O=C(NC1CCCC1)[C@@H]1[C@@H](CO)[C@@H]2Cn3c(ccc(-c4ccccc4)c3=O)[C@H]1N2CCc1ccccc1	none (no result: UUG fidelity, PGC1a acetyl inh)
CN(C)c1cccc(C(=O)Nc2cccc(S(=O)(=O)NC3=NCCC3)c2)c1	esBAF inh 55
c1ccc2c(c1)Nc1cc3ccccc3cc1S2	none (no result: UUG fidelity, PglD DTNB, esBAF inh, Statin myotox sup)
Cc1ccc2c(c1)Sc1c(ccc3ccccc13)N2	esBAF inh 51 (no result: E-sel inducer)
C[C@H](NC(=O)C[C@@H]1C[C@@H]2c3cc(NS(C)(=O)=O)ccc3O[C@@H]2[C@@H](CO)O1)c1ccccc1	none
O=[N+]([O-])c1ccc(NN=Cc2ccc(O)cc2)nc1	esBAF inh 95
COc1ccc(C=NNc2ccc([N+](=O)[O-])cn2)cc1	esBAF inh 52
COc1ccc(NN=Nc2ccc([N+](=O)[O-])cc2)cc1	esBAF inh 49 (no result: E-sel inducer)
CCCCCCC1CC(=O)NC(=S)N1 (stereo not drawn)	PGC1a acetyl inh 63 (no result: UUG fidelity, PglD DTNB, esBAF inh, Statin myotox sup)
COc1ccc(CN(C)C[C@H]2Oc3ccc(NC(=O)c4ccncc4)cc3C(=O)N([C@H](C)CO)C[C@@H]2C)cc1	E-sel inducer 47
COc1ccc(CN(C)C[C@@H]2Oc3ccc(NC(=O)c4ccncc4)cc3C(=O)N([C@H](C)CO)C[C@H]2C)cc1	E-sel inducer 93
COc1ccc2c3c(n(C)c2c1)[C@H](CO)N(C(C)=O)CC31CN(C(=O)NC(C)C)C1	none (no result: UUG fidelity, PglD DTNB, esBAF inh, Statin myotox sup)
O=C(Nc1cc2c(cc1Cl)OCCO2)c1ccco1	none (no result: PGC1a acetyl inh, E-sel inducer)
O=C(Cc1ccccc1)Nc1cc2c(cc1Cl)OCCCO2	esBAF inh 64 (no result: PGC1a acetyl inh)
COC(=O)c1ccccc1NC(=O)c1ccc2c(c1)OCCCO2	none (no result: E-sel inducer)
CCc1ccc(C(=O)Nc2cc3c(cc2Cl)OCCCO3)cc1	esBAF inh 69 (no result: E-sel inducer)
O=C(O)c1cc2c(cc1NC(=O)c1ccccc1C(F)(F)F)OCCCO2	none (no result: PGC1a acetyl inh)
O=C(Nc1cc2c(cc1C(=O)O)OCCCO2)c1ccc(C(F)(F)F)cc1	esBAF inh 55
O=C(N[C@H]1C=C[C@H](CC(=O)N2CCc3ccccc3C2)O[C@H]1CO)C1CC1	none (no result: UUG fidelity)
C[C@@H]1CN([C@@H](C)CO)C(=O)Cc2cc(NS(=O)(=O)c3ccc(F)cc3)ccc2O[C@H]1CN(C)C(=O)Nc1ccccc1	none
Cc1ccc(C2CN=NC23CCc2ccccc2C3=O)cc1 (stereo not drawn)	esBAF inh 48 (no result: E-sel inducer)
C[C@@H]1CCCCO[C@@H](CN(C)Cc2ccccc2)[C@H](C)CN([C@@H](C)CO)C(=O)c2cc(NS(=O)(=O)c3ccccc3)ccc2O1	none (no result: Statin myotox sup)
COc1cc2c(c(O)c1OC)C(=O)C(OC)CCC2 (stereo not drawn)	Statin myotox sup 89 (no result: E-sel inducer)
C[C@@H]1CN([C@H](C)CO)S(=O)(=O)c2ccc(-c3ccc(F)cc3)cc2O[C@@H]1CN(C)C(=O)C1CCC1	none (no result: UUG fidelity, PglD DTNB, esBAF inh)
Oc1ccc(Br)cc1/C=N/n1cnc2ccccc21	esBAF inh 53 (no result: E-sel inducer)
O=C(Nc1ccc(Br)cc1)C1Cc2ccccc2O/C1=N\O (stereo not drawn)	esBAF inh 55
Cc1c(C(=O)NNC(=O)c2ccccc2O)oc2ccccc12	esBAF inh 59 (no result: E-sel inducer)
Cc1c(C(=O)NCc2ccco2)oc2ccc(Br)cc12	none
Cc1cccc(NC(=S)NC(=O)c2ccc(-c3ccccc3)cc2)n1	none (no result: PGC1a acetyl inh, E-sel inducer)
COC(=O)c1oc2ccccc2c1NC(=O)c1ccccc1O	none (no result: E-sel inducer)
Cc1c(C(=O)NCc2ccco2)oc2ccccc12	E-sel inducer 48 (no result: PGC1a acetyl inh)
Cc1cccc(NC(=S)NC(=O)c2oc3ccccc3c2C)n1	esBAF inh 49 (no result: E-sel inducer)
C[C@H]1CCCCO[C@@H](CN(C)C(=O)NC2CCCCC2)[C@@H](C)CN([C@@H](C)CO)C(=O)c2cc(NS(=O)(=O)c3ccc(F)cc3)ccc2O1	none (no result: Statin myotox sup, E-sel inducer)
Cc1ccccc1Nc1nc(N)nc(CN(C)c2ccccc2)n1	esBAF inh 47 (no result: E-sel inducer)
Nc1nc(COC(=O)c2ccco2)nc(Nc2ccccc2)n1	esBAF inh 48
Cc1ccc(Nc2nc(N)nc(COC(=O)c3ccc(Br)o3)n2)cc1	none
Cc1ccccc1Nc1nc(N)nc(COC(=O)c2ccco2)n1	esBAF inh 77
CC(C)NC(=O)Nc1ccc2c(c1)C(=O)N([C@H](C)CO)C[C@H](C)[C@H](CN(C)Cc1ccc(C(=O)O)cc1)OCCCC[C@H](C)O2	none (no result: Statin myotox sup)
C[C@@H]1CN([C@H](C)CO)C(=O)c2cc(NC(=O)Nc3ccc4c(c3)OCO4)ccc2O[C@H]1CN(C)Cc1ccccc1	none (no result: E-sel inducer)
Cc1cc(C(=O)Nc2cccc3c2O[C@@H](CN(C)C(=O)NC2CCCCC2)[C@@H](C)CN([C@@H](C)CO)C3=O)n(C)n1	none
CNC(C)C#Cc1ccc2c(=O)c3cc(C)c(C)cc3oc2c1 (stereo not drawn)	esBAF inh 69 (no result: PGC1a acetyl inh)
O=C(C[C@H]1C=C[C@@H](NC(=O)c2ccncc2)[C@H](CO)O1)NCC1CCCCC1	none
Cn1c(N)c(C(=O)COC(=O)CNC(=O)c2ccccc2)c(=O)n(C)c1=O	none
Cn1c(N)c(C(=O)COC(=O)CCc2ccccc2)c(=O)n(C)c1=O	E-sel inducer 107
Brc1ccc(C2=NC(Cc3ccccc3)CO2)cc1 (stereo not drawn)	esBAF inh 68 (no result: PGC1a acetyl inh)
O=[N+]([O-])c1ccc2cn(-c3ccccc3)nc2c1	esBAF inh 61
O=Cc1cn(-c2ccccc2)nc1-c1ccccc1	none (no result: E-sel inducer)
O=Cc1cn(-c2ccccc2)nc1-c1cccc([N+](=O)[O-])c1	esBAF inh 59 (no result: PGC1a acetyl inh)
CCOC(=O)/C=C/[C@H]1CC2(CCO1)SCCCS2	esBAF inh 55
O=C(C=Cc1ccccc1Cl)c1ccccc1	none (no result: UUG fidelity)
C=CCn1cccc(/C=C/C(=O)c2ccc(C(C)(C)C)cc2)c1=S	PGC1a acetyl inh 53 (no result: UUG fidelity, PglD DTNB, E-sel inducer)
Cc1cccc2c1NC1(CCCC1)CC2C (stereo not drawn)	E-sel inducer 188 (no result: esBAF inh, Statin myotox sup)
CO[C@H]1CN(C)C(=O)c2ccc(NC(=O)c3ccccc3F)cc2OC[C@@H](C)N(CC2CCOCC2)C[C@H]1C	none
